Permeability data for macrocyclic peptides

Source: CycPeptMPDB (Li et al. 2023), which took these values from Hewitt et al. 2015, doi:10.1021/ja508766b.

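Conditions beyond the assay type are not listed; see the original paper. Other peptides of the study may be missing here. Entries at the database's floor value (log10 P of -10) are not listed.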

Caco-2: transport across a human colon carcinoma cell monolayer.
P is given in units of 10^-6 cm/s (from log10 values with two decimals); larger means faster passage.

compound,Caco-2 (10^-6 cm/s)
CC(C)C[C@@H]1NC(=O)[C@H](CC(C)C)NC(=O)[C@@H](CC(C)C)NC(=O)[C@@H](CC(C)C)NC(=O)[C@H]2CCCN2C(=O)[C@H](Cc2ccc(O)cc2)NC1=O,0.26
CC(C)C[C@@H]1NC(=O)[C@@H](CC(C)C)NC(=O)[C@H](CC(C)C)NC(=O)[C@@H](CC(C)C)NC(=O)[C@H]2CCCN2C(=O)[C@H](Cc2ccc(O)cc2)NC1=O,0.14
CC(C)C[C@@H]1NC(=O)[C@H](CC(C)C)NC(=O)[C@@H](CC(C)C)NC(=O)[C@H]2CCCN2C(=O)[C@H](Cc2ccc(O)cc2)NC(=O)[C@H](CC(C)C)NC1=O,0.43
CC(C)C[C@@H]1NC(=O)[C@@H](CC(C)C)NC(=O)[C@@H](CC(C)C)NC(=O)[C@H]2CCCN2C(=O)[C@H](Cc2ccc(O)cc2)NC(=O)[C@@H](CC(C)C)NC1=O,7.9
CC(C)C[C@@H]1NC(=O)[C@@H](CC(C)C)NC(=O)[C@@H](CC(C)C)NC(=O)[C@@H](CC(C)C)NC(=O)[C@H]2CCCN2C(=O)[C@H](Cc2ccc(O)cc2)NC1=O,0.23
CC(C)C[C@@H]1NC(=O)[C@@H](CC(C)C)NC(=O)[C@H]2CCCN2C(=O)[C@H](Cc2ccc(O)cc2)NC(=O)[C@@H](CC(C)C)NC(=O)[C@@H](CC(C)C)NC1=O,0.48
CC(C)C[C@H]1NC(=O)[C@H]2CCCN2C(=O)[C@H](Cc2ccc(O)cc2)NC(=O)[C@@H](CC(C)C)NC(=O)[C@@H](CC(C)C)NC(=O)[C@@H](CC(C)C)NC1=O,0.045
CC(C)C[C@@H]1NC(=O)[C@H](CC(C)C)NC(=O)[C@@H](CC(C)C)NC(=O)[C@H]2CCCN2C(=O)[C@H](Cc2ccc(O)cc2)NC(=O)[C@@H](CC(C)C)NC1=O,3.6